Measurements: PubChem BioAssay AID2205 (University of Pittsburgh Molecular Library Screening Center, 2009)
The entries are a selection whose mix differs from that of the whole data set. Calls of active or inactive are those of the source.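 How the source made its calls: active means plate Z-score above 3 for both tubulin-high and condensed-nucleus cell shares, with cell loss under 80%, at 10 µM; inactive means the rest, inconclusive results apart.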

assay: microtubule stabilizers in HeLa cells, primary screen, imaging, high-content imaging (AID 2205); details: HeLa tubulin immunostaining HCS, 24 h; at 10 µM; stronger effect = higher value; share of cells brighter than vehicle mean+2SD

| Compound | % tubulin-high responders |
| --- | --- |
| COc1ccc(OP(C)(=O)Nc2ccc(Br)cc2)cc1 (stereo unspecified) | inactive: 2.82% |
| COc1ccc(C2=NCC(CBr)S2)cc1 (stereo unspecified) | inactive: 2.46% |
| CCN(CC)CC(O)COC(=O)C(O)(c1ccccc1)C1CCCCC1 (stereo unspecified) | inactive: 3.92% |
| CCc1nc2c(n1)c1c(non1O)c1c2no[n+]1[O-] | inactive: 8.03% |
| O=[N+]([O-])c1cc([N+](=O)[O-])c(CCNc2ccccc2)c([N+](=O)[O-])c1 | inactive: 2.19% |
| CCc1ccc(OP(C)(=O)Nc2cccnc2)cc1 (stereo unspecified) | inactive: 3.19% |
| CP(=O)(Oc1ccccc1)N1CCOC1=O (stereo unspecified) | inactive: 1.1% |
| Cc1ccc(NP(=O)(Oc2ccccc2)Oc2ccccc2)nc1 | inactive: 2.9% |
| COc1ccccc1OP(C)(=O)Nc1c(C)n(C)n(-c2ccccc2)c1=O (stereo unspecified) | inactive: 6.42% |
| O=[N+]([O-])c1cccc2n[nH]nc12 | inactive: 3.1% |
| CC(=O)N1C2C3N(C(C)=O)C1C1N(C(C)=O)C(C(N1C(C)=O)N3C(C)=O)N2C(C)=O | inactive: 3.46% |
| CP(=O)(Nc1ccc(Cl)cc1)Oc1ccc(F)cc1 (stereo unspecified) | inactive: 3.34% |
| CCN(/C(=N/P(=O)(N1CCOCC1)N1CCOCC1)N1CCOCC1)c1ccc(OC)cc1 | inactive: 2.12% |
| CC(C)(C)c1ccc(OP(C)(=O)O)cc1 | inactive: 3.25% |
| COc1ccccc1OP(C)(=O)Nc1ccccc1Br (stereo unspecified) | inactive: 4.18% |
| CC1CCN(C(=O)Oc2c(Cl)cc(Cl)c3cccnc23)CC1 | inactive: 3.13% |
| CN(C)C(=O)OCCc1n(C)cc[n+]1C | inactive: 4.23% |
| CN(C)C(=O)c1c([N+](=O)[O-])cc([N+](=O)[O-])cc1[N+](=O)[O-] | inactive: 4.97% |
| CC(C)=N/N=C(\N)N[N+](=O)[O-] | inactive: 3.18% |
| CP(=O)(OC12CC3CC(CC(C3)C1)C2)OC12CC3CC(CC(C3)C1)C2 | inactive: 0.944% |
| CCOC(=O)c1ccc(NP(C)(=O)Oc2ccc(Cl)cc2)cc1 (stereo unspecified) | inactive: 1.55% |
| O=[N+]([O-])c1ncn(CCn2ncnc2[N+](=O)[O-])n1 | inactive: 4.63% |
| Cc1cc(C)cc(OP(C)(=O)Nc2cccc(C(F)(F)F)c2)c1 (stereo unspecified) | inactive: 1.43% |
| COc1ccc(OP(C)(=O)Nc2ccccc2Br)cc1 (stereo unspecified) | inactive: 5.82% |
| COc1ccccc1OP(C)(=O)Nc1ccc(C)c(C)c1 (stereo unspecified) | inactive: 3.42% |
| CCOP(=O)(Nc1ccccc1)OCC | inactive: 2.91% |

| Compound | % tubulin-high responders |
| --- | --- |
| Cc1cc(SC(NC(=O)c2ccc(F)cc2)C(Cl)(Cl)Cl)ncn1 (stereo unspecified) | inactive: 4.28% |
| Cc1nc2ccc3ccccc3c2o1.O=[N+]([O-])c1cc([N+](=O)[O-])c(O)c([N+](=O)[O-])c1 | inactive: 2.44% |
| CP(=O)(OCCOc1ccccc1)OCCOc1ccccc1 | inactive: 3.78% |
| CP(=O)(Nc1ccc(Cl)cc1Cl)Oc1ccccc1 (stereo unspecified) | inactive: 5.8% |
| CCN(N=Nc1nonc1N)c1nonc1N | inactive: 2.43% |
| Cc1ccc(N/C(=N/P(=O)(N2CCOCC2)N2CCOCC2)N2CCOCC2)cc1 | inactive: 5.91% |
| NC(=O)c1cc([N+](=O)[O-])cc([N+](=O)[O-])c1N | inactive: 3.79% |
| Clc1ccc(Cl)c(NC2=NCC(CBr)S2)c1 (stereo unspecified) | inactive: 1.6% |
| CN(C)CCOC(=O)C(O)(c1ccccc1)C1CCCC1 (stereo unspecified) | inactive: 2.52% |
| CN1CCCC(OC(=O)C(c2ccccc2)c2ccccc2)C1 (stereo unspecified) | inactive: 3.09% |
| COc1ccc(OP(C)(=O)Nc2ccccn2)cc1 (stereo unspecified) | inactive: 2.19% |
| COc1ccccc1OP(=O)(Nc1ccc(C)cn1)Oc1ccccc1OC | inactive: 2.71% |
| Cc1c2non([O-])c-2c(C)[n+](=O)[n+]1[O-] | inactive: 1.88% |
| O=C(NC(Sc1ccncn1)C(Cl)(Cl)Cl)c1ccccc1 (stereo unspecified) | inactive: 2.28% |
| Oc1ccccc1CNc1ccccn1 | inactive: 1.89% |
| CC(C)CC(=O)NC(Sc1ccc(Cl)cc1)C(Cl)(Cl)Cl (stereo unspecified) | inactive: 0.972% |
| O=[N+]([O-])c1cc([N+](=O)[O-])c(Nc2ccccn2)c([N+](=O)[O-])c1 | inactive: 3.49% |
| Cc1c(NP(C)(=O)Oc2ccc(C(C)C)cc2)c(=O)n(-c2ccccc2)n1C (stereo unspecified) | inactive: 3.04% |
| CCc1ccc(OP(C)(=O)O)cc1 | inactive: 2.3% |
| COc1ccccc1OP(C)(=O)Nc1ccc(C)cc1C (stereo unspecified) | inactive: 1.39% |
| CP(=O)(Nc1ccccn1)Oc1ccccc1 (stereo unspecified) | inactive: 2.78% |
| CCOc1ccc(C2=NCC(CBr)S2)cc1 (stereo unspecified) | inactive: 9.55% |
| O=P1(Nc2nc3ccc(Cl)cc3s2)COc2ccccc2O1 (stereo unspecified) | inactive: 4.6% |
| CC(C)c1ccc(OP(C)(=O)Nc2ccc(SC(F)(F)F)cc2)cc1 (stereo unspecified) | inactive: 1.66% |
| CC(C)(C)C(=O)NC(Sc1ccccc1)C(Cl)(Cl)Cl (stereo unspecified) | inactive: 2.2% |
| CP(=O)(Nc1ccccc1F)Oc1ccccc1 (stereo unspecified) | inactive: 3.04% |

| Compound | % tubulin-high responders |
| --- | --- |
| O=C(OCCN1CCN(CCOCc2ccccc2)CC1)C(O)(c1ccccc1)c1ccccc1 | inactive: 2.06% |
| CC(=O)Nc1ccc(Oc2c([N+](=O)[O-])cc([N+](=O)[O-])cc2[N+](=O)[O-])cc1 | inactive: 6.4% |
| CCOC(=O)NC(Sc1ccccc1)C(Cl)(Cl)Cl (stereo unspecified) | inactive: 3.44% |
| c1ccc(-c2nn[nH]n2)c(-c2nn[nH]n2)c1 | inactive: 1.32% |
| CCNC(=S)/N=C(\N)N[N+](=O)[O-] | inactive: 4.31% |
| O=C(NC1CCS(=O)(=O)C1)NP(=S)(Oc1ccccc1)Oc1ccccc1 (stereo unspecified) | inactive: 5.54% |
| COc1ccc(OP(C)(=O)Nc2ccc(SC(F)(F)F)cc2)cc1 (stereo unspecified) | inactive: 2.61% |
| CCOC(=O)c1ccc(NP(C)(=O)Oc2ccc(F)cc2)cc1 (stereo unspecified) | inactive: 3.59% |
| CCN(CC)CCCOC(=O)C(O)(c1ccccc1)C1CCCCC1 (stereo unspecified) | inactive: 2.71% |
| CCC(=O)N1C2C3N(C(=O)CC)C1C1N(C(=O)CC)C(C(N1C(=O)CC)N3C(=O)CC)N2C(=O)CC | inactive: 2.52% |
| Cc1ccc(OP(=O)(Nc2ccccn2)Oc2ccc(C)cc2)cc1 | inactive: 2.45% |
| CC(=O)NC(SC(=S)N(CC(C)C)CC(C)C)C(Cl)(Cl)Cl (stereo unspecified) | inactive: 5% |
| COC(=O)c1cc2c(s1)N=C(c1ccccc1)N(C)P2(=O)N1CCOCC1 (stereo unspecified) | inactive: 4.22% |
| O=c1c2cc([N+](=O)[O-])ccc2[nH]c2c([N+](=O)[O-])cc([N+](=O)[O-])cc12 | inactive: 6.62% |
| CP(=O)(Nc1ccccc1)Oc1ccc(F)cc1 (stereo unspecified) | inactive: 1.72% |
| O=P(Nc1ccccn1)(c1ccc(Br)cc1)c1ccc(Br)cc1 | inactive: 5.63% |
| COc1ccc(OP(C)(=O)Nc2cccc(Br)c2)cc1 (stereo unspecified) | inactive: 2.94% |
| COc1ccc(NP(C)(=O)Oc2ccccc2OC)cc1 (stereo unspecified) | inactive: 1.74% |
| CN(C)CCOC(=O)C(O)(c1ccccc1)C1CCCCC1 (stereo unspecified) | inactive: 3.59% |
| O=[N+]([O-])c1cc([N+](=O)[O-])c(NCC2CCS(=O)(=O)C2)c([N+](=O)[O-])c1 (stereo unspecified) | inactive: 3.12% |
| CC(=O)NC(SC(=S)N(C)C)C(Cl)(Cl)Cl (stereo unspecified) | inactive: 3.02% |
| O=C(OC1CN2CCC1CC2)c1cccc(Cl)c1 (stereo unspecified) | inactive: 6.2% |
| C(Cc1nn[nH]n1)Cc1nn[nH]n1 | inactive: 3.32% |
| CC(C)C(=O)NC(Sc1ccccc1)C(Cl)(Cl)Cl (stereo unspecified) | inactive: 2.27% |
| O=P(Nc1nccs1)(c1ccccc1)c1ccccc1 | inactive: 2% |
| c1nnnn1CCn1cnnn1 | inactive: 1.14% |

| Compound | % tubulin-high responders |
| --- | --- |
| CCOP(C)(=S)SCC(=O)NC(C)(CC)C(=O)O (stereo unspecified) | inactive: 1.62% |
| CP(=O)(Nc1ccc2c(c1)OCCO2)Oc1ccccc1 (stereo unspecified) | inactive: 3.66% |
| Cc1ccccc1NP(C)(=O)Nc1ccccc1C | inactive: 7.41% |
| O=[N+]([O-])c1cc([N+](=O)[O-])c(-n2nnc3ccccc32)c([N+](=O)[O-])c1 | inactive: 7.39% |
| O=P1(Nc2ccccn2)COc2ccccc2OC1 | inactive: 5.42% |
| Clc1n[nH]nc1-c1nn[nH][15n]1 | inactive: 4.34% |
| CC(C)/C=N\N=C(\N)N[N+](=O)[O-] | inactive: 4.93% |
| Cc1nc2ccc3ccccc3c2s1.O=[N+]([O-])c1cc([N+](=O)[O-])c(O)c([N+](=O)[O-])c1 | inactive: 4.93% |
| CC1(CBr)Cn2c(nc3ccccc3c2=O)S1 (stereo unspecified) | inactive: 3.09% |
| CC1CCC(C(C)C)C(OP(=O)(Nc2ccccn2)c2ccccc2)C1 (stereo unspecified) | inactive: 3.8% |
| Cc1nn(-c2ccccc2)c2c1P(=O)(N1CCOCC1)N(C)C(c1ccccc1)=N2 (stereo unspecified) | inactive: 1.88% |
| COc1cc(C2NCCC3(OCCO3)C2(C)C)cc(OC)c1OC.O=[N+]([O-])c1cc([N+](=O)[O-])c(O)c([N+](=O)[O-])c1 (stereo unspecified) | inactive: 4.06% |
| CN(C)C1(CNC(=O)c2ccc(S(C)(=O)=O)cc2)CCCCC1 | inactive: 2.62% |
| O=P1(Nc2ncccn2)COc2ccccc2OC1 | inactive: 3.26% |
| COc1ccccc1OP(C)(=O)Nc1c(C)cccc1C (stereo unspecified) | inactive: 2.48% |
| CN1CCCCC1COC(=O)C1(O)c2ccccc2CCc2ccccc21 (stereo unspecified) | inactive: 2.44% |
| CP(=O)(Nc1ccc(SC(F)(F)F)cc1)Oc1ccccc1 (stereo unspecified) | inactive: 1.42% |
| CCCOc1ccc(NP(C)(=O)Oc2ccc(Cl)cc2)cc1 (stereo unspecified) | inactive: 3.06% |
| O=P1(Nc2ccc(Br)cn2)COc2ccccc2OC1 | inactive: 3.64% |
| Cc1ccc(OCC(=O)OC2CN3CCC2CC3)cc1 (stereo unspecified) | inactive: 2.78% |
| O=P(Nc1nccs1)(c1ccccc1)c1nc2ccccc2s1 (stereo unspecified) | inactive: 4.07% |
| O=P(Nc1nccs1)(Oc1ccccc1)Oc1ccccc1 | inactive: 3.27% |
| CCOP1(=S)c2c(C)nn(CCC#N)c2N=C(c2ccccc2F)N1C (stereo unspecified) | inactive: 3.69% |
